SMILES strings stand for the structures. The list shows a part of the results, in another mix than the full data. Active and inactive are the calls of the source. Rule as the data show it: active = activity change below about -30%; inactive = the rest, inconclusive results apart.
% is scaled to controls: 0 for no effect and ±100 for the full control effect.

The nature of this assay: qHTS Assay for Inhibitors of Fructose-1,6-bisphosphate Aldolase from Giardia Lamblia: Coupling assay counterscreen. As to conditions: coupling enzyme system counterscreen, AmpLite Red fluorescence; at 58.2 µM (top of the series). Put shortly:
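Compounds tested against the coupling enzymes alone at 57.5 uM final; readout was AmpLite Red fluorescence (525/598 nm) after 20 min at RT.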
In the case of `CCOP(=O)(Nc1cccc2ccccc12)OCC`, the activity change, negative = inhibition was inactive: -0.104%.
Turning to `COc1cc(C2NCCC3(OCCO3)C2(C)C)cc(OC)c1OC` (stereo not drawn), the activity change, negative = inhibition is inactive: -0.359%.
As for `Nc1cccc2c([As](=O)(O)O)cccc12`, the activity change, negative = inhibition is inactive: -28.8%.
The figure for `Cc1ccc(NCCc2c([N+](=O)[O-])cc([N+](=O)[O-])cc2[N+](=O)[O-])cc1` is inactive: -7.82%.
Regarding `CCCOP(=S)(Nc1nc(N)cc(=O)[nH]1)OCCC`, the activity change, negative = inhibition is inactive: -1.45%.
The figure for `Cc1cccc(OCC(=O)OC2CN3CCC2CC3)c1` (stereo not drawn) is inactive: -0.715%; for `O=[As](O)(c1cccc(O)c1)c1cccc(O)c1` it is inactive: -2.61%; for `O=C(OC1CN2CCC1CC2)c1ccc(Cl)cc1` (stereo not drawn) it is inactive: 1.46%.
The figure for `O=[As](O)(O)c1cccnc1` is inactive: 0.48%.
The figure for `COc1cc(C(=O)NCC2(N3CCOCC3)CCCCC2)cc(Cl)c1OC(C)C` is inactive: -8.45%.
As to `COc1ccc(N/C(=N/P(=O)(N2CCOCC2)N2CCOCC2)N2CCOCC2)cc1`, the activity change, negative = inhibition is inactive: 3.22%.
The figure for `COc1cc(I)ccc1[As](=O)(O)O` is inactive: 1.03%; for `COc1ccc2nc(NP(=O)(c3ccccc3)c3ccccc3)sc2c1` it is inactive: -0.174%.
The figure for `Cc1c2c(nc3ccccc13)SC(C(Cl)Cl)C2` (stereo not drawn) is inactive: 0.167%; for `Cc1cc(=O)[nH]c(N[N+](=O)[O-])n1` it is inactive: 1.78%; for `O=C(OC1CN2CCC1CC2)C12CC3CC(CC(C3)C1)C2` (stereo not drawn) it is inactive: 4.04%.
As for `O=[N+]([O-])c1cc([N+](=O)[O-])c(-c2ccn[nH]2)s1`, the activity change, negative = inhibition was inactive: -8.55%.
As to `CC(C)NC(=O)NP(=O)(Oc1ccccc1)Oc1ccccc1`, the activity change, negative = inhibition is inactive: -1.68%.
The figure for `CCN(CC)C(=S)SC(NC=O)C(Cl)(Cl)Cl` (stereo not drawn) is inactive: 0.445%.
The figure for `ClCCSc1nnc(-c2cccnc2)o1` is inactive: -3.24%.
The figure for `CC(C)c1ccc(OP(=O)(Nc2ccccn2)Oc2ccccc2F)cc1` (stereo not drawn) is inactive: 0.421%; for `Cc1ccc(OP(=O)(Nc2ccc([N+](=O)[O-])cn2)Oc2ccc(C)cc2)cc1` it is inactive: -2.21%.
For the compound `Cc1ccc2nc3c(c(C)c2c1)CC(C(Cl)Cl)S3` (stereo not drawn), the activity change, negative = inhibition is inactive: 0.772%.
Under `C[As](=O)(O)c1cccc(C(=O)O)c1` stands inactive: 0.546%.
Under `O=[As](O)(c1ccc(O)cc1)c1ccccc1O` stands inactive: 0.77%; under `Cc1cc(SC(NC=O)C(Cl)(Cl)Cl)ncn1` (stereo not drawn), inactive: 5.14%; under `O=P(Nc1ccccn1)(c1cccc2ccccc12)c1cccc2ccccc12`, inactive: -3.51%.
Under `O=[N+]([O-])c1ccc(Nc2ccc(Oc3ccc([N+](=O)[O-])cc3[N+](=O)[O-])cc2)c([N+](=O)[O-])c1` stands inactive: -0.322%; under `CCOC(=O)Nc1cccc([As](=O)(O)O)c1`, inactive: 4.15%; under `Cc1cc(SC(NC(=O)c2ccccc2)C(Cl)(Cl)Cl)nc(C(C)C)n1` (stereo not drawn), inactive: 4.58%.
Regarding `CCCCOc1ccc(C(=O)NCC2(N3CCCCC3)CCCCC2)cc1OC`, the activity change, negative = inhibition is inactive: 1.61%.
The figure for `CCOC(=O)Nc1ccc([As](=O)(O)O)c(O)c1` is inactive: -2.3%; for `CCC(C)N(CC(C)C)C(=S)SC(NC(C)=O)C(Cl)(Cl)Cl` (stereo not drawn) it is inactive: -2.54%.
Under `O=C(OC1CN2CCC1CC2)c1cccc([N+](=O)[O-])c1` (stereo not drawn) stands inactive: 2.6%; under `CCOC(=O)c1ccc(NC(=O)C(C)(CCl)SC)cc1` (stereo not drawn), inactive: -5.31%; under `O=C(Nc1ccncc1[N+](=O)[O-])c1ccc([N+](=O)[O-])cc1[N+](=O)[O-]`, inactive: -4.07%.
The figure for `O=C(COc1ccccc1)OC1CN2CCC1CC2` (stereo not drawn) is inactive: 3.1%; for `COP1(=S)c2c(C)nn(CCC#N)c2N=C(c2ccc(F)cc2)N1C` (stereo not drawn) it is inactive: -0.672%.
